# Results: paper PMC9299415 (Molecular Neurobiology, 2022)
# Chains of the proteins cited; added tags and fusions are not shown. Residues count along the entry.
# UniProt P36544, 23-502: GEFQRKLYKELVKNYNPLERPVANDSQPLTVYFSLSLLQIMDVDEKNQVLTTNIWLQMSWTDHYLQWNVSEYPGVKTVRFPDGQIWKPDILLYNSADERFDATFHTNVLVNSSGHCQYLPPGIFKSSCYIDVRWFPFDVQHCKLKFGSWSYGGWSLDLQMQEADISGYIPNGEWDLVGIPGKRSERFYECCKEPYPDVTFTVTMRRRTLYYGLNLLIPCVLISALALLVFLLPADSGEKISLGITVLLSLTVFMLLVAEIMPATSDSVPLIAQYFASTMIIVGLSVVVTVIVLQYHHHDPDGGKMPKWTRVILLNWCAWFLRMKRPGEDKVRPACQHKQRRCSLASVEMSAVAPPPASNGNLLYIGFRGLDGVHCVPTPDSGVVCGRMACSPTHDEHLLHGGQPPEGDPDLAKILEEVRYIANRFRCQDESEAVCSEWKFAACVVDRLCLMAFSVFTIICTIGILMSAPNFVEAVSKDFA
# Tests used:
# human α7 nAChR [1] = target: T1, human α7 nAChR (Homo sapiens, UniProt P36544); assay type: cell-based
# human α7 nAChR [2] = assay type: cell-based
# human α7 nAChR [3] = settings: MLA 100 nM; 10 μM ACh + 1 μM PNU-120596; n = 3
# human α7 nAChR [4] = assay type: cell-based; settings: n = 15, N = 3
# human α7 nAChR [5] = target: T1, human α7 nAChR; assay type: cell-based; remark: listed apart in the source
# human α7 nAChR [6] = target: T1, human α7 nAChR; assay type: cell-based; remark: listed apart in the source
# human α7 nAChR [7] = target: T1, human α7 nAChR; assay: cell-based
compound,measurement,setting,value
"Oc1ccc2[nH]ccc2c1 [5-HI, 5-hydroxyindole]",increase of duration of slowest open component by PAM,human α7 nAChR [1],fourfold longer
same,increase of mean burst duration by PAM,human α7 nAChR [1],eightfold longer
"CC(=O)OCC[N+](C)(C)C [ACh, Acetylcholine]",macroscopic current response evoked by ACh,human α7 nAChR [2],robust responses
"CCN1C[C@]2(COC(=O)c3ccccc3N3C(=O)C[C@H](C)C3=O)CC[C@H](OC)[C@@]34[C@@H]5C[C@H]6[C@H](OC)[C@@H]5[C@](O)(C[C@@H]6OC)[C@@](O)([C@@H](OC)[C@H]23)[C@@H]14 [MLA, methyllycaconitine]",effect on duration of clusters or bursts,human α7 nAChR [3],No reduction in the duration of clusters or bursts
"COc1cc(OC)c(NC(=O)Nc2cc(C)on2)cc1Cl [PNU-120596, N-(5-Chloro-2,4-dimethoxyphenyl)-N’-(5-methyl-3-isoxazolyl)-urea]",macroscopic currents of either compound on its own,human α7 nAChR [4],neither Y674-R685 nor PNU-120596 on their own elicited currents
C[C@H](NC(=O)[C@H](CCCNC(=N)N)NC(=O)[C@H](CCCNC(=N)N)NC(=O)[C@@H]1CCCN1C(=O)[C@H](CO)NC(=O)[C@H](CC(N)=O)NC(=O)[C@@H](NC(=O)[C@H](CCC(N)=O)NC(=O)[C@@H](NC(=O)[C@H](CCC(N)=O)NC(=O)[C@@H](N)Cc1ccc(O)cc1)[C@@H](C)O)[C@@H](C)O)C(=O)N[C@@H](CCCNC(=N)N)C(=O)O [Y674-R685],reduction of maximal currents elicited by ACh (Imax),human α7 nAChR [5],30 ± 4%
same,reduction of cluster duration,human α7 nAChR [6],78%
same,IC50,human α7 nAChR [7],1.8 ± 0.8 µM
same,IC50 range in words,human α7 nAChR [7],low-micromolar range
